This note sets out measurements from publication PMC4837355, “Receptor residence time trumps drug-likeness and oral bioavailability in determining efficacy of complement C5a antagonists” (Scientific Reports, 2016).

The conditions of the data set: rat, in vivo, po.

In general, bioavailability refers to the share of a dose that reaches the circulation, judged against a reference dose that is usually intravenous. Read a low bioavailability as poor availability.

Each structure is given as a SMILES string.

In turn, `CC(=O)N[C@@H](Cc1ccccc1)C(=O)N[C@H]1CCCNC(=O)[C@H](CCCNC(=N)N)NC(=O)[C@H](Cc2c[nH]c3ccccc23)NC(=O)[C@@H](CC2CCCCC2)NC(=O)[C@@H]2CCCN2C1=O` [3D53, Ac-Phe-[Orn-Pro-D-Cha-Trp-Arg]] gave a bioavailability of 2.4%.
